From PMC8576328, “Broad-Spectrum Inhibitor of Bacterial Polyphosphate Homeostasis Attenuates Virulence Factors and Helps Reveal Novel Physiology of Klebsiella pneumoniae and Acinetobacter baumannii” (Frontiers in Microbiology, 2021)

Test system: Nc1ncnc2c1ncn2[C@@H]1O[C@H](COP(=O)(O)OP(=O)(O)OP(=O)(O)O)[C@@H](O)[C@H]1O
Assay: purified protein
Settings: varied ATP, 4 mM MgSO4, pH 7.5, 37 C, no gallein, substrate inhibition model

**Q.** For “K. pneumoniae PPK1 (KP) (Klebsiella pneumoniae subsp. pneumoniae MGH 78578)”, which Km is on record?
**A.** The Km was 256 ± 31 µM.
